Literature values in patent EP0533724B1, “CALCIUM CITRATE MALATE COMPOSITION” (THE PROCTER & GAMBLE COMPANY, priority 1990, dated 1991).
Where two headings read alike, the source gives them in different places.

Settings: water, 25°C, cited from earlier work
[1] = reference (1) "Solubilities", 4th Edition, W. F. Linke

| Substance | g Salt/100 ml H₂O [1] | g Salt/100 ml H₂O (reference (2) CRC Handbook of Chemistry and Physics, 67th Edition) |
| --- | --- | --- |
| Calcium Malate· 3 H₂O | 0.31 g Salt/100 ml H₂O | 0.4 g Salt/100 ml H₂O |
| Calcium Oxide | 0.1 g Salt/100 ml H₂O |  |
